# BindingDB's records for patent US9416123 (Synovo, 2016)
# Chains of the proteins cited; added tags and fusions are not shown. A line that says so, or that is headed by a name, gives the form on record, which may keep a tag or linker.
# UniProt P00533, with tags, fused parts or gaps DEL746-750 limits assumed: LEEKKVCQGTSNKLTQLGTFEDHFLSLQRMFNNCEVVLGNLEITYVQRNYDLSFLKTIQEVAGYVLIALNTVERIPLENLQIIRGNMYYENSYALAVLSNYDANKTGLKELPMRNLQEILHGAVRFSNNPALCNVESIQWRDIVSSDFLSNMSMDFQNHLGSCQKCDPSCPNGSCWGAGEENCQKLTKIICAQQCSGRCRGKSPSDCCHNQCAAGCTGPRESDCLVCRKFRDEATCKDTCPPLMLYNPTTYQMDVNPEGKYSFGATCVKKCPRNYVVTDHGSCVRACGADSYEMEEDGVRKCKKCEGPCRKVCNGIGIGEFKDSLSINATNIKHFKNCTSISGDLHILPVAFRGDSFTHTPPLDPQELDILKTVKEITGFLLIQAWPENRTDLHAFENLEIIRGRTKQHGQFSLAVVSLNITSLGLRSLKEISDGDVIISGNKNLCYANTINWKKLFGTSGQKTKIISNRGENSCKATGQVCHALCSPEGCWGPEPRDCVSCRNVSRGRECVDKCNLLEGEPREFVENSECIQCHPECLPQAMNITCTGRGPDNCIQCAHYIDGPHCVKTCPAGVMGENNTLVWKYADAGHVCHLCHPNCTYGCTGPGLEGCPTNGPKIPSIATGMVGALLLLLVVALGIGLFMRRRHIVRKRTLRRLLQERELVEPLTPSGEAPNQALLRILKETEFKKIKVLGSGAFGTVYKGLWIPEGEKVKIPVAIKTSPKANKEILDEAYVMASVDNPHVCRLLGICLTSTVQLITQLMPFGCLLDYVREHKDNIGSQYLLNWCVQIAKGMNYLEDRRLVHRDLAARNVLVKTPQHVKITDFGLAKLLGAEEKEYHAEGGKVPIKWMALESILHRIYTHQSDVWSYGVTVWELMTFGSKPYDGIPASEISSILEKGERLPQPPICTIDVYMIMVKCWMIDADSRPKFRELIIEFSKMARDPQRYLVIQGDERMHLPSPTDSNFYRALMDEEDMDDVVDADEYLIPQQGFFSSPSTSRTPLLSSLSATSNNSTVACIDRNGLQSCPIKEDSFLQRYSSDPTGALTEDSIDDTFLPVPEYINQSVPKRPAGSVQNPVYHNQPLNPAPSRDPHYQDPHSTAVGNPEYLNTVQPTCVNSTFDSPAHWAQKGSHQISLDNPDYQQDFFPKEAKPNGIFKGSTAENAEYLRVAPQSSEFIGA
# Target: T1, Epidermal growth factor receptor [DEL746-750] (Homo sapiens, UniProt P00533, DEL746-750)
# T1 construct: gene EGFR
# Settings: pH 7.5; 30 °C
smiles,measurement,value
"Nc1c(-c2ccc(F)cc2)c(-c2ccncc2)nn1-c1c(Cl)cc(Cl)cc1Cl [US9416123, 6]",IC50,50 nM
